Drawing on PubChem BioAssay AID588621 (Sanford-Burnham Center for Chemical Genomics, 2011), this text covers inhibition for 107 molecules.

Protein sequences, listed by entry. Tags and fused reporters are not part of them.
UniProt P54829, whole entry: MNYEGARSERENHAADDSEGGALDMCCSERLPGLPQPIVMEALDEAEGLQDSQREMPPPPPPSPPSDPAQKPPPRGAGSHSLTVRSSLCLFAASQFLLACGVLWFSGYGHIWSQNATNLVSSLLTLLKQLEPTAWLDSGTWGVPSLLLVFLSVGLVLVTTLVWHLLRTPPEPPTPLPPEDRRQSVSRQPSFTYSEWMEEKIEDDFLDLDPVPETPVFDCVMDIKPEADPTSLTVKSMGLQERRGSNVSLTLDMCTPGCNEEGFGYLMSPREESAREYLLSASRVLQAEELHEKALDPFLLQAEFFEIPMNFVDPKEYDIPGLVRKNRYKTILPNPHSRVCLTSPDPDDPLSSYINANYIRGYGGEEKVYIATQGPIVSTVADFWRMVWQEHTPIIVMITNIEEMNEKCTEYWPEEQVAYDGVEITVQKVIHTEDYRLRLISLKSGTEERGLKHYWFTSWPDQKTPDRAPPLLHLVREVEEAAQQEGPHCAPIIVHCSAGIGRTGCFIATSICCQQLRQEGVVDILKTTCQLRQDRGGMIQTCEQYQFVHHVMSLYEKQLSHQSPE

Each structure is given as a SMILES string. Only a part is listed here, and it is no random draw. Calls of active or inactive are those of the source.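 Rule for the calls: active = inhibition at 20 µM, scaled per plate between control wells, above about 37% (limit read from the data); inactive = the rest.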

This experiment addresses Tyrosine-protein phosphatase non-receptor type 5 (Homo sapiens) (UniProt P54829). The experiment is described as follows: STEP phosphatase inhibitors, primary screen, biochemical, fluorescence intensity, uHTS (AID 588621).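 Note: 0% = DMSO with enzyme and substrate and 100% = substrate only without enzyme.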 Conditions: recombinant STEP, OMFP fluorogenic substrate, at 20 µM, hits give high values. Summed up: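 Assay system: isolated STEP enzyme / Timing: 20 min at room temperature, dark / Doses: 20 µM, 1% DMSO / Technique: fluorescence intensity, excitation 480 nm, emission 540 nm / Reagent: fluorogenic phosphatase substrate OMFP at 25 µM final / Measure: percent inhibition scaled to no-enzyme and uninhibited-enzyme controls, plate-pattern corrected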
The inhibition is the drop in the measured response relative to a control, in per cent. With `Cc1ccccc1NC1(C#N)CCN(Cc2ccccc2)CC1`, the inhibition was inactive: -1.2%.

As for `COc1ccc(C(c2nnnn2C2CCCCC2)N2CCC(n3c(=O)[nH]c4ccccc43)CC2)cc1` (configuration not stated), the inhibition is inactive: 0.9%.

For `CCN1CCC(Nc2cccc(F)c2)CC1`, the inhibition is inactive: -1%.

As for `CC(C)(C)n1nnnc1C(c1ccnc2ccccc12)N1CCC(n2c(=O)[nH]c3ccccc32)CC1` (configuration not stated), the inhibition was inactive: 0.8%.

With `O=C(NCC1(N2CCCCC2)CCCCC1)c1ccco1`, the inhibition was inactive: 1.6%.

Turning to `CN(C)c1ccc(C(=O)NCC2(N3CCCCC3)CCCCC2)cc1`, the inhibition is inactive: -2.6%.

As for `Cn1c(=O)[nH]cc(N(CCCl)CCCl)c1=O`, the inhibition was inactive: 3.7%.

`COc1cccc(C(c2nnnn2C2CCCCC2)N2CCC(n3c(=O)[nH]c4ccccc43)CC2)c1OC` (configuration not stated): the inhibition was inactive: 2.9%.

Consider `CC(=O)N(c1ccccc1)C1CCNCC1`, for which the inhibition was inactive: -4.6%.

Take `CCC(c1nnnn1C1CCCCC1)N1CCC(n2c(=O)[nH]c3ccccc32)CC1` (configuration not stated): the inhibition was inactive: -1.7%.

Consider `COc1cc(OC)cc(C(=O)NCC2(N3CCCCC3)CCCCC2)c1`, for which the inhibition was inactive: -1%.

With `O=c1[nH]c2ccccc2n1C1CCN(C(c2ccnc3ccccc23)c2nnnn2C2CCCCC2)CC1` (configuration not stated), the inhibition is inactive: 6.9%.

For the molecule `Cc1ccc(C(=O)NCC2(N3CCCCC3)CCCCC2)o1`, the inhibition was inactive: -0.3%.

As for `Fc1ccccc1NC1CCN(Cc2ccccc2)CC1`, the inhibition was inactive: -3.5%.

As to `Cc1ccc(NC2(C#N)CCN(Cc3ccccc3)CC2)cc1`, the inhibition is inactive: 2%.

As to `COc1cccc(C(=O)N(c2cc(C)cc(C)c2)C2CCN(C(=O)OC(C)(C)C)CC2)c1`, the inhibition was inactive: 2%.

Take `COc1cccc(C(c2nnnn2C2CCCC2)N2CCC(n3c(=O)[nH]c4ccccc43)CC2)c1OC` (configuration not stated): the inhibition is inactive: 1.7%.

Turning to `COc1cc(OC)cc(C(=O)NCC2(N3CCOCC3)CCCCC2)c1`, the inhibition is inactive: 0.5%.

For the molecule `CCC(CO)(C(=O)OC1CN2CCC1CC2)c1ccccc1` (configuration not stated), the inhibition is inactive: -2.6%.

Regarding `CN1CCC(Nc2ccc(Cl)cc2)CC1`, the inhibition was inactive: -4.3%.

On to `CCOc1ncccc1C(=O)NCC1(N2CCOCC2)CCCCC1`, for which the inhibition was inactive: 0.1%.

Consider `CN1CCC(Nc2ccc(F)c(Cl)c2)CC1`, for which the inhibition is inactive: -4.1%.

Turning to `CC(C)(C)OC(=O)N1CCC(Nc2ccccc2)CC1`, the inhibition is inactive: -1%.

For the molecule `O=C(O)C1(Nc2ccccc2)CCN(Cc2ccccc2)CC1`, the inhibition is inactive: -0.6%.

In the case of `O=c1[nH]c2ccccc2n1C1CCN(C(c2cc3ccccc3o2)c2nnnn2C2CCCC2)CC1` (configuration not stated), the inhibition is inactive: 0.2%.

`CCCOc1ccc(C(=O)NCC2(N(C)C)CCCCC2)cc1`: the inhibition is inactive: -1.3%.

`CCOC(=O)N1CCC(Nc2ccc(C)cc2)CC1`: the inhibition was inactive: -2.4%.

In the case of `COc1cccc(C(c2nnnn2C(C)(C)C)N2CCC(n3c(=O)[nH]c4ccccc43)CC2)c1OC` (configuration not stated), the inhibition is inactive: 2.3%.

For the molecule `N/C(=N\O)c1c(N)no[n+]1[O-]`, the inhibition was inactive: -2.7%.

For the molecule `O=C(OC1CN2CCC1CC2)C1c2ccccc2C=Cc2ccccc21` (configuration not stated), the inhibition is inactive: -5.1%.

Regarding `O=c1[nH]c2ccccc2n1C1CCN(C(c2cccs2)c2nnnn2C2CCCC2)CC1` (configuration not stated), the inhibition was inactive: 4.6%.

`CCCCn1nnnc1C(c1cccc(OC)c1OC)N1CCC(n2c(=O)[nH]c3ccccc32)CC1` (configuration not stated): the inhibition is inactive: 3.6%.

As for `CCCCn1nnnc1C(c1ccccc1)N1CCC(n2c(=O)[nH]c3ccccc32)CC1` (configuration not stated), the inhibition was inactive: 2.4%.

For the molecule `COc1cc(C(=O)NCC2(N3CCOCC3)CCCCC2)cc(OC)c1C`, the inhibition was inactive: -2.3%.

With `O=C(NCC1(N2CCOCC2)CCCCC1)c1cc(Br)ccc1Cl`, the inhibition was inactive: 1.2%.

`O=c1[nH]c2ccccc2n1C1CCN(C(c2cccs2)c2nnnn2C2CCCCC2)CC1` (configuration not stated): the inhibition was inactive: -2.8%.

Take `COc1ccc(C(=O)NCC2(N3CCOCC3)CCCCC2)cc1OC`: the inhibition is inactive: -0.3%.

With `O=c1[nH]c2ccccc2n1C1CCN(C(c2ccnc3ccccc23)c2nnnn2C2CCCC2)CC1` (configuration not stated), the inhibition is inactive: 1.8%.

As to `CN(C)C1(CNC(=O)c2cccc(C#N)c2)CCCCC1`, the inhibition is inactive: -1.6%.

For the molecule `c1ccc(CN2CCC(Nc3ccccc3)CC2)cc1`, the inhibition was inactive: 1.5%.

For the molecule `O=c1[nH]c2ccccc2n1C1CCN(C(c2ccccc2)c2nnnn2C2CCCC2)CC1` (configuration not stated), the inhibition was inactive: -1.4%.

Consider `CCCN1CCC(Nc2cc(OC)cc(OC)c2)CC1`, for which the inhibition is inactive: -3.8%.

As to `Cc1cc(N(CCCl)CCCl)ccc1C=O`, the inhibition is inactive: 0.2%.

As to `CC(C)(C)n1nnnc1C(c1cccc2ccccc12)N1CCC(n2c(=O)[nH]c3ccccc32)CC1` (configuration not stated), the inhibition was inactive: 1.5%.

Regarding `N#Cc1ccc(C(=O)NCC2(N3CCCCC3)CCCCC2)cc1`, the inhibition was inactive: -1.1%.

Turning to `CC(C)(C)OC(=O)N1CCC(N(C(=O)c2ccccc2)c2ccc(Cl)cc2)CC1`, the inhibition was inactive: -0.9%.

As for `O=C(NCC1(N2CCCCC2)CCCCC1)c1cccc(C(F)(F)F)c1`, the inhibition was inactive: -3.1%.

`O=C(NCC1(N2CCOCC2)CCCCC1)c1cc(=O)[nH]c2ccccc12`: the inhibition was inactive: -0.4%.

Turning to `COc1cc(C(=O)NCC2(N3CCCCC3)CCCCC2)ccc1OC(F)F`, the inhibition was inactive: 1.2%.

Regarding `COc1ccc(NC2CCN(C(=O)OC(C)(C)C)CC2)cc1`, the inhibition is inactive: 4.5%.

`CC(C)c1ccc(C(=O)NCC2(N3CCOCC3)CCCCC2)cc1`: the inhibition is inactive: -0.5%.

Consider `CN1CCN(CCOC(=O)C(O)(c2ccccc2)c2ccccc2)CC1`, for which the inhibition was inactive: -3.8%.

For the molecule `CCCCn1nnnc1C(c1cccc2ccccc12)N1CCC(n2c(=O)[nH]c3ccccc32)CC1` (configuration not stated), the inhibition is inactive: 3%.

For `CC(C)(C)n1nnnc1C(c1ccccc1OC(F)(F)F)N1CCC(n2c(=O)[nH]c3ccccc32)CC1` (configuration not stated), the inhibition is inactive: 3.5%.

For `O=C(NCC1(N2CCCCC2)CCCCC1)c1ccc(OC(F)F)cc1`, the inhibition was inactive: -1.5%.

Regarding `CCN1CCC(Nc2ccc(Cl)cc2)CC1`, the inhibition was inactive: -7.4%.

For `O=c1[nH]c2ccccc2n1C1CCN(C(c2ccccc2OC(F)(F)F)c2nnnn2C2CCCC2)CC1` (configuration not stated), the inhibition is inactive: 0.9%.

In the case of `N#CC1(Nc2ccccc2)CCN(CCc2ccccc2)CC1`, the inhibition is inactive: -2.9%.

In the case of `CSc1ccc(C(=O)NCC2(N3CCOCC3)CCCCC2)cc1`, the inhibition is inactive: -1.5%.

On to `O=C(NCC1(N2CCCCC2)CCCCC1)c1cccc([N+](=O)[O-])c1`, for which the inhibition was inactive: 0.6%.

As for `CN1CCC(Nc2cccc(F)c2)CC1`, the inhibition is inactive: -1.3%.

As to `O=C(NCC1(N2CCCCC2)CCCCC1)c1cncc(Br)c1`, the inhibition is inactive: -0.3%.

On to `COc1ccc(C(c2nnnn2C2CCCC2)N2CCC(n3c(=O)[nH]c4ccccc43)CC2)cc1` (configuration not stated), for which the inhibition is inactive: 0.2%.

As for `Cc1ccc(C(=O)NCC2(N(C)C)CCCCC2)o1`, the inhibition was inactive: -0.6%.

Turning to `CCCOc1ccc(C(=O)NCC2(N(C)C)CCCCC2)cc1OC`, the inhibition was inactive: -2%.

For the molecule `CC(C)c1ccc(NC2CCN(C(=O)OC(C)(C)C)CC2)cc1`, the inhibition is inactive: 0.2%.

On to `CCCCn1nnnc1C(c1ccccc1OC(F)(F)F)N1CCC(n2c(=O)[nH]c3ccccc32)CC1` (configuration not stated), for which the inhibition was inactive: -0.1%.

Take `COc1ccc(CN(CCCl)CCCl)cc1Cl`: the inhibition was inactive: -3.5%.

As to `CN(C)c1cccc(C(=O)NCC2(N3CCCCC3)CCCCC2)c1`, the inhibition is inactive: -2.6%.

Turning to `COc1cc(OC)c(C(=O)NCC2(N(C)C)CCCCC2)cc1OC`, the inhibition was inactive: -1.1%.

As to `CCC(c1nnnn1C(C)(C)C)N1CCC(n2c(=O)[nH]c3ccccc32)CC1` (configuration not stated), the inhibition was inactive: 0.5%.

Take `O=C(NCC1(N2CCOCC2)CCCCC1)c1cc(F)c(F)cc1Cl`: the inhibition was inactive: 1.4%.

Take `CCCCn1nnnc1C(c1ccnc2ccccc12)N1CCC(n2c(=O)[nH]c3ccccc32)CC1` (configuration not stated): the inhibition is inactive: 1.7%.

Take `O=C(NCC1(N2CCCCC2)CCCCC1)c1ccc(Cl)nc1`: the inhibition is inactive: 1.2%.

With `O=c1[nH]c2ccccc2n1C1CCN(C(c2ccccc2OC(F)(F)F)c2nnnn2C2CCCCC2)CC1` (configuration not stated), the inhibition is inactive: 0.6%.

With `Cc1cc(C)cc(N(C(=O)c2ccccc2)C2CCN(C(=O)OC(C)(C)C)CC2)c1`, the inhibition is inactive: 0.6%.

`O=C(NCC1(N2CCOCC2)CCCCC1)c1cc2ccccc2o1`: the inhibition was inactive: -5.9%.

In the case of `N#CC1(Nc2ccccc2)CCN(Cc2ccccc2)CC1`, the inhibition was inactive: 7.2%.

For the molecule `O=C(NCC1(N2CCCCC2)CCCCC1)c1ccc(Cl)s1`, the inhibition was inactive: 1%.

For the molecule `O=c1[nH]c2ccccc2n1C1CCN(C(c2cc3ccccc3o2)c2nnnn2C2CCCCC2)CC1` (configuration not stated), the inhibition is inactive: 3%.

`O=C(OC1CN2CCC1CC2)C1c2ccccc2Oc2ccccc21` (configuration not stated): the inhibition was inactive: 1.9%.

With `COc1ccc(Cl)cc1C(=O)NCC1(N2CCOCC2)CCCCC1`, the inhibition is inactive: -2.9%.

On to `CCOC(=O)N1CCC(Nc2ccc(OC)cc2)CC1`, for which the inhibition is inactive: 0.1%.

On to `CCCCn1nnnc1C(c1ccc(OC)cc1)N1CCC(n2c(=O)[nH]c3ccccc32)CC1` (configuration not stated), for which the inhibition is inactive: 3.6%.

As to `COc1ccc(C(=O)NCC2(N3CCCCC3)CCCCC2)cc1`, the inhibition was inactive: 5.6%.

Regarding `COc1ccc(C(=O)NCC2(N3CCCCC3)CCCCC2)c(OC)c1OC`, the inhibition was inactive: -0.1%.

`CC(C)(C)OC(=O)N1CCC(N(C(=O)c2ccccc2)c2ccc(F)cc2)CC1`: the inhibition is inactive: 1.1%.

Turning to `CCC(c1nnnn1C1CCCC1)N1CCC(n2c(=O)[nH]c3ccccc32)CC1` (configuration not stated), the inhibition was inactive: -0.3%.

In the case of `O=C(NCC1(N2CCCCC2)CCCCC1)c1ccc(=O)[nH]c1`, the inhibition is inactive: -2.1%.

For the molecule `CCCCn1nnnc1C(CC)N1CCC(n2c(=O)[nH]c3ccccc32)CC1` (configuration not stated), the inhibition was inactive: 3%.

With `O=C(NCC1(N2CCCCC2)CCCCC1)c1cccs1`, the inhibition was inactive: -2.3%.

In the case of `CCCCn1nnnc1C(c1cccs1)N1CCC(n2c(=O)[nH]c3ccccc32)CC1` (configuration not stated), the inhibition was inactive: -0.7%.

Consider `CSc1ccccc1C(=O)NCC1(N2CCCCC2)CCCCC1`, for which the inhibition is inactive: 1.7%.

Turning to `Cc1cccc(NC2(C#N)CCN(Cc3ccccc3)CC2)c1`, the inhibition was inactive: 4.1%.

As to `O=c1[nH]c2ccccc2n1C1CCN(C(c2ccccc2)c2nnnn2C2CCCCC2)CC1` (configuration not stated), the inhibition is inactive: 1.2%.

`CCOC(=O)N1CCC(Nc2cccc(C)c2)CC1`: the inhibition was inactive: -1.8%.

On to `COc1cc(C(=O)NCC2(N(C)C)CCCCC2)ccc1OC(F)F`, for which the inhibition was inactive: 0.9%.

As for `O=c1[nH]c2ccccc2n1C1CCN(C(c2cccc3ccccc23)c2nnnn2C2CCCC2)CC1` (configuration not stated), the inhibition was inactive: 1.5%.

Consider `CC(C)(C)n1nnnc1C(c1ccccc1)N1CCC(n2c(=O)[nH]c3ccccc32)CC1` (configuration not stated), for which the inhibition is inactive: 1.1%.

Regarding `O=C1CCN(Cc2ccccc2)CC1`, the inhibition was inactive: -5%.

Turning to `CCOc1ccc(C)cc1CN(CCCl)CCCl`, the inhibition is inactive: 0.1%.

Regarding `CCCCOc1ccc(C(=O)NCC2(N3CCOCC3)CCCCC2)cc1`, the inhibition was inactive: 7.4%.

Take `O=P1(N(CCCl)CCCl)SCCCS1`: the inhibition is inactive: -1.1%.

As to `CCCCn1nnnc1C(c1cc2ccccc2o1)N1CCC(n2c(=O)[nH]c3ccccc32)CC1` (configuration not stated), the inhibition is inactive: -1.2%.

On to `O=C(NCC1(N2CCCCC2)CCCCC1)c1ccc(F)cc1`, for which the inhibition is inactive: 1.7%.

Take `CCOC(=O)N1CCC(Nc2ccc(F)cc2)CC1`: the inhibition was inactive: -2.4%.

`COc1ccc(NC2CCN(CCc3ccccc3)CC2)c(OC)c1`: the inhibition is inactive: -0.7%.
